Biological target: T1, Ghsr1α (Mus musculus, UniProt Q99P50, INS247CCPGCC)
T1 construct: Mouse full length Ghsr1α cDNA (NCBI Gene ID: 208188) was purchased from OriGene (MR226073); expressed in transfected cells; host or cells: HEK 293T
Assay: FlAsH-based FRET assay of Ghsr1α activity in HEK 293T cells
Assay type: cell-based
Conditions: JMV2959 50 μM against MK0677 50 μM
From the text: The interaction with Aβ induces GHSR1α dysfunction. To determine whether s interaction affects the function of Ghsr1α, the inventor examined Ghsr1α activity in Aβ-enriched environments by using fluorescein arsenical hairpin binder (FlAsH)-based fluorescence resonance energy transfer (FRET) assay, which is advantageous for GPCR activity assay because of its minimally-perturbing effect on GPCR function (18). FlAsH-based FRET was created by structural dynamics of Ghsr1α with FlAsH in the intercellular loop 3 and enhanced cyan fluorescent protein (ECFP) in the C-terminus (Ghsr1α^FlAsH/ECFP). Ghsr1α^FlAsH/ECFP was expressed in HEK 293T cells and changes in FRET ratio (FFlAsH/FECFP) was monitored for the measurement of agonist-induced Ghsr1α activation. […] Ghsr1α antagonist, JMV2959 (50 μM) diminished MK0677-mediated FRET ratio decrease (FIG. 2a). […] Oligomeric Aβ42 at indicated concentrations was applied on Ghsr1α^FlAsH/ECFP-expressing HEK 293T cells for 5 minutes (pre-incubation) followed by co-incubation with vehicle or Ghsr1α agonist MK0677. […]
FlAsH-based FRET. […] Fluorescence signals were monitored on microplate reader (BioTek Cytation 5) before and after the treatments. […] Area scanning read mode was used to correct artificial inaccuracies. The FRET ratio (FFlAsH/FECFP) was calculated according to equation as previously reported (69): […]

By UniProt entry, the sequences of proteins in these tests, tags left out. Where a name states a change or a piece, a line headed by the entry shows the natural chain unless it says otherwise.
UniProt Q99P50: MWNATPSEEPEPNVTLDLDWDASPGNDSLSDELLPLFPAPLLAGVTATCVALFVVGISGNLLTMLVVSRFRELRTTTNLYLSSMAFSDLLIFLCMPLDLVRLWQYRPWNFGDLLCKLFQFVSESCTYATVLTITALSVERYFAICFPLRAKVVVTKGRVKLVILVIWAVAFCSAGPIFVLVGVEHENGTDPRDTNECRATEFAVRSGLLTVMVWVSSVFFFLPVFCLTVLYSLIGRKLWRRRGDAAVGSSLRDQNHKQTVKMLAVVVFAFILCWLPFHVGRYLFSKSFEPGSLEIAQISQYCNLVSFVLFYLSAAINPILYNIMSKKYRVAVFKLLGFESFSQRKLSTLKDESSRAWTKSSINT

JMV2959
effect on MK0677-mediated FRET ratio decrease: diminished

— patent US20220370471A1, “COMPOSITION AND METHOD FOR TREATMENT OF HIPPOCAMPAL SYNAPSE DYSFUNCTION AND COGNITIVE DEFICITS IN ALZHEIMER'S DISEASE” (BOARD OF REGENTS, THE UNIVERSITY OF TEXAS SYSTEM, priority 2019, published 2022)
